Assay results taken from patent US9062078B2, “Substituted 7-azabicyles and their use as orexin receptor modulators” (priority 2013, dated 2015).

The chains behind the UniProt entries cited, without tags or fusion partners.
UniProt O43614, whole entry: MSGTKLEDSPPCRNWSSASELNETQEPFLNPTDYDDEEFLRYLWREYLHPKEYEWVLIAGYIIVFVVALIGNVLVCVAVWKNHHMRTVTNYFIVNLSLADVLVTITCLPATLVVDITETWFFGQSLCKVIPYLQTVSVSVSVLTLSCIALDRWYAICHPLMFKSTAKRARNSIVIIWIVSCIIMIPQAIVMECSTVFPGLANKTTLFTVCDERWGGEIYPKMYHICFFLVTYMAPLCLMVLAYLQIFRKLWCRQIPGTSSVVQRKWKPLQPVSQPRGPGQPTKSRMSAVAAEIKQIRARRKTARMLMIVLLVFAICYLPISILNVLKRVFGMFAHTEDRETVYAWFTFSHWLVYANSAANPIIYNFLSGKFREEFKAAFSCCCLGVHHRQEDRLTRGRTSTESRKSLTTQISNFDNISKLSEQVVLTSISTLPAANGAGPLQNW
UniProt O43613, whole entry: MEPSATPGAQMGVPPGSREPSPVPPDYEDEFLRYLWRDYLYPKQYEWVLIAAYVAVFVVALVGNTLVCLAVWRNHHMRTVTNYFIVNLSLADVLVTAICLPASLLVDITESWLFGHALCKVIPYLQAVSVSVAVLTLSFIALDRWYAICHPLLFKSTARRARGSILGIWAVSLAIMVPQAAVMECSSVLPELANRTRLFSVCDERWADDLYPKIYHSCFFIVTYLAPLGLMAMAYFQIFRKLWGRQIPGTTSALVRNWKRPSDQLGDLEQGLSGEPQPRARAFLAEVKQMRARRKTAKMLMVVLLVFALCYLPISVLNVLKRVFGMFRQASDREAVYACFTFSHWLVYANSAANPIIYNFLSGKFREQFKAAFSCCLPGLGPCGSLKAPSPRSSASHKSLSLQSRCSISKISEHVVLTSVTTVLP

Key:
[1] = target: human orexin 2 receptor (Homo sapiens (Human), UniProt O43614); test: Human orexin 2 receptor radioligand binding (competitive, [3H]-EMPA, HEK293 cell preparations); conditions: hOX2 Ki (nm)
[2] = target: rat orexin 1 receptor (Rattus norvegicus, UniProt P56718); test: Rat orexin 1 receptor radioligand binding (competitive, [3H]-SB674042, HEK293 cell preparations)
[3] = target: human orexin 1 receptor (Homo sapiens (Human), UniProt O43613); test: Human orexin 1 receptor radioligand binding (competitive, [3H]-SB674042, CHO cell preparations); conditions: hOX1 Ki (nm)

SMILES	Ki [1]	Ki ([2]; rOX1 Ki (nm))	further results
CCOc1ncc2ccccc2c1C(=O)N1C2CCC1C(COc1ccccn1)C2 (racemic) [Example 83, (±)-(3-ethoxyisoquinolin-4-yl)(2-((pyridin-2-yloxy)methyl)-7-azabicyclo[2.2.1]heptan-7-yl)methanone]	271 nM	–	–
COc1c(F)cccc1C(=O)N1C2CCC1C(COc1ccc(F)cn1)C2 (racemic) [Example 107, (±)-((3-fluoro-2-methoxyphenyl)(2-(((5-fluoropyridin-2-yl)oxy)methyl)-7-azabicyclo[2.2.1]heptan-7-yl)methanone]	–	–	Ki ([2]; rat orexin 1 receptor, [3H]-SB674042 competition binding, read-out: rOX1 Ki (nm)): 440 nM
O=C(c1ccccc1-n1nccn1)N1C2CCC1C(Nc1cnc(C(F)(F)F)cn1)C2 (racemic) [Example 182, (±)-((2-(2H-1,2,3-triazol-2-yl)phenyl)(2-((5-(trifluoromethyl)pyrazin-2-yl)amino)-7-azabicyclo[2.2.1]heptan-7-yl)methanone]	–	47 nM	–
O=C(c1ccccc1-n1nccn1)N1C2CCC1C(Nc1ncc(C(F)(F)F)cn1)C2 (racemic) [Example 221, (±)-(2-(2H-1,2,3-triazol-2-yl)phenyl)(2-(5-(trifluoromethyl)pyrimidin-2-yl)amino)-7-azabicyclo[2.2.1]heptan-7-yl)methanone]	3300 nM	–	–
O=C(c1ccccc1-n1nccn1)N1C2CCC1C(Nc1cc(C(F)(F)F)ccn1)C2 (single isomer, unassigned) [Example 210, (±)-((2-(2H-1,2,3-triazol-2-yl)phenyl)(2-(4-(trifluoromethyl)pyridin-2-yl)amino)-7-azabicyclo[2.2.1]heptan-7-yl)methanone]	128 nM	211 nM	–
O=C(c1ccccc1-n1nccn1)N1C2CCC1C(Nc1cc(C(F)(F)F)ccn1)C2 (single isomer, unassigned) [Example 235, (±)-((2-(2H-1,2,3-triazol-2-yl)phenyl)(2-((4-(trifluoromethyl)pyridin-2-yl)amino)-7-azabicyclo[2.2.1]heptan-7-yl)methanone]	> 10000 nM	> 10000 nM	–
Cc1ccc(-n2nccn2)c(C(=O)N2[C@@H]3CC[C@H]2[C@H](COc2ccc(F)cn2)C3)n1 [Example 8A, ((1S,2R,4R)-2-(((5-fluoropyridin-2-yl)oxy)methyl)-7-azabicyclo[2.2.1]heptan-7-yl)(6-methyl-3-(2H-1,2,3-triazol-2-yl)pyridin-2-yl)methanone]	–	–	Ki [3]: 14 nM

Where two headings read alike, the source gives them in different places.
